Experimental data taken from patent publication US8759334B2, “Compounds useful for the treatment of metabolic and inflammatory diseases” (Galapagos NV, priority 2011, dated 2014).

System: human neutrophils
Test: Neutrophil migration assay
Type: cell-based
Method: G Protein-Coupled Receptor 43 (GPR43) was described as an essential player in the process of neutrophil recruitment during intestinal inflammation.
The effect of agonists or antagonists for GPR43 can therefore be assayed in a neutrophil migration test. In the neutrophil migration assay, neutrophils, isolated from buffy coats from human volunteers, are treated with a compound for 30 minutes. Subsequently, the neutrophils are transferred to the upper wells of a Corning HTS transwell 96 permeable support system, of which the lower wells are filled with a sodium acetate solution.
The ACD buffer consists of 140 mM citric acid, 200 mM sodium citrate and 220 mM dextrose. The 6% dextran/0.9% NaCl solution consists of 15 g dextran T2000 and 2.25 g NaCl dissolved in 250 mL H2O.
A human buffy coat is diluted with an equal volume of ice cold DPBS. 20 mL of the diluted buffy coat is gently mixed with 4 mL of ACD buffer. Then, 12 mL of the 6% dextran/0.9% NaCl solution is added to the mixture and the samples are inverted gently up to 20 times. […]
A cell suspension of 8.9×10^6 cells per milliliter is prepared. […] 170 μL of cell lysate is then transferred to a white 96-well plate and luminescence is measured. The detected luminescent signal is considered as linearly related to the number of migrated cells.

EC50 (neutrophils from human buffy coat, migration towards sodium acetate, read-out: human neutrophil migration inhibition EC50) [nM]	Compound	EC50 (Homo sapiens, read-out: human neutrophil migration inhibition EC50 (nM)) [nM]
0.01 to 100	CC1(C(=O)N(CCCC(=O)O)Cc2cccc(Cl)c2)CCN1C(=O)c1csc2ccccc12 (centres unmarked) [Compound 146, 4-[[1-(Benzo[b]thiophene-3-carbonyl)-2-methyl-azetidine-2-carbonyl]-(3-chloro-benzyl)-amino]-butyric acid]	
	C[C@]1(C(=O)N(CCCC(=O)O)Cc2cccc(Cl)c2)CCN1C(=O)c1csc2ccccc12 [Compound 191, 4-[[(R)-1-(Benzo[b]thiophene-3-carbonyl)-2-methyl-azetidine-2-carbonyl](3-chloro-benzyl)-amino]-butyric acid]	0.01 to 100

Read-outs that look alike come from different tables or passages of the source.
